Experimental data reported in patent publication US7863415B2 (The Regents of the University of California, priority 2004, dated 2011).

Test: Neuropathological and neurobehavioral effects of intracerebral/intrathecal amiloride infusion in rats
Details: amiloride infusion 276 pmol/24 h

For `N=C(N)NC(=O)c1nc(Cl)c(N)nc1N` [Amiloride, 3,5-diamino-6-chloro-N-(diaminomethylene)pyrazinecarboxamide], the “Animals with intermittent seizures” value was 3 of 8 and the Premature deaths was “no premature deaths”.
